# Reference: PubChem BioAssay AID540256 (National Center for Advancing Translational Sciences (NCATS), 2011)
# The list shows a part of the results, in another mix than the full data. Some results for these compounds are left out of this collection, so the calls shown say nothing about other tests. Results filed as inconclusive are left out. The source made the active and inactive calls. Calls follow the shape of the full dose curve; tested in HEK293 cells.
# Experiment: qHTS for Inhibitors of binding or entry into cells for Lassa Virus; also: nearly all actives have a fitted effect of over 50% in size
# Settings: Lassa virus pseudotype entry inhibition, cell reporter; at 37.9 µM (top of the series)
# % is scaled to controls: 0 for no effect and ±100 for the full control effect.
row,Structure (SMILES),"activity change, negative = inhibition"
1,CC(C)N1C(=O)CC2(CCN(CCOC(=O)C(O)(c3ccccc3)c3ccccc3)CC2)C1=O,inactive: -11.3%
